According to US5298614A, “Size limited double stranded poly I poly(cytidylate/4-thiouridylate)” (Nippon Shinyaku Co. Ltd., priority 1986, dated 1994):
Marks after values point to notes of the source that are not given here.

Test system: interleukin 2 (lymph particles from spleen cells of BALB/c mice)
Experiment: Inducing activity of interleukin 2, 3H-thymidine incorporation with CTLL-2 or NK-7
Format: cell-based
Conditions: samples 100α/ml; interleukin 2 5 units/ml; saline control 230

## Interleukin 2: Interleukin 2
  Incorporated Amount: 3578 DPM (× 10^3)
